{"sequences": {"note": "Chains of the proteins cited; added tags and fusions are not shown.", "UniProt Q8TDV0, whole entry": "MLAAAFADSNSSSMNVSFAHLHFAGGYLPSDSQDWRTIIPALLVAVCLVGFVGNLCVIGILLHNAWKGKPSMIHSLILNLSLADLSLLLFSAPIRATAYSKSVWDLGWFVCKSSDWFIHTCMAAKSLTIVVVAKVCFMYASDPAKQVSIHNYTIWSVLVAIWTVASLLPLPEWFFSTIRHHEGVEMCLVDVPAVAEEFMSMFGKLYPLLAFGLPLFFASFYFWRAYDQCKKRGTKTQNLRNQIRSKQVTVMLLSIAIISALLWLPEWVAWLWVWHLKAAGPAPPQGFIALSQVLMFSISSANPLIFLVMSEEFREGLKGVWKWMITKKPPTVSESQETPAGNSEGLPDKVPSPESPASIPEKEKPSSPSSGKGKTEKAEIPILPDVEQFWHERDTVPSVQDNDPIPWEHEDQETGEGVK"}, "source": "PubChem BioAssay AID1508602", "about": "(The Scripps Research Institute Molecular Screening Center, 2020)", "note": "The list shows a part of the results, in another mix than the full data. Some of these compounds have results that are not shown, active ones among them. Active and inactive are the calls of the source. Rule as the data show it: active = activation above about 4.9%; inactive = the rest."}
{"target": "G-protein coupled receptor 151 (Homo sapiens) (UniProt Q8TDV0)", "test": "activators of human GPR151, primary screen, cell-based, PathHunter beta-arrestin, luminescence (AID 1508602);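 also: 0% = median of compound wells and 100% = cells with positive control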", "settings": "PathHunter beta-arrestin GPR151 cells, at 11.2 µM, active compounds read high"}
{"smiles": "COc1cc(SC)ccc1C(=O)NCC1(N(C)C)CCCCC1", "activation": "inactive: -0.387%"}
{"smiles": "CN1CCCC(COC(=O)C(O)(c2ccccc2)c2ccccc2)C1", "note": "(stereo not given)", "activation": "inactive: 3.78%"}
{"smiles": "O=C(NCC1(N2CCOCC2)CCCCC1)c1cnc(Cl)c(Cl)c1", "activation": "inactive: 1.17%"}
{"smiles": "CC(C)N(CCOC(=O)C(O)(c1ccccc1)c1ccccc1)C(C)C", "activation": "inactive: 0.279%"}
{"smiles": "COc1ccc(C(=O)NCC2(N(C)C)CCCCC2)cc1", "activation": "inactive: -1.23%"}
{"smiles": "CN(C)c1ccc(C(=O)NCC2(N(C)C)CCCCC2)cc1", "activation": "inactive: 0.198%"}
{"smiles": "CN(C)C1CCCC1OC(=O)C(O)(c1ccccc1)c1ccccc1", "note": "(stereo not given)", "activation": "inactive: 1.62%"}
{"smiles": "CC(CCN(C)C)OC(=O)C(O)(c1ccccc1)c1ccccc1", "note": "(stereo not given)", "activation": "inactive: -0.208%"}
{"smiles": "CN(C)C1(CNC(=O)c2n[nH]c3ccccc23)CCCCC1", "activation": "inactive: -0.0286%"}
{"smiles": "COc1cccc(C(=O)NCC2(N3CCCCC3)CCCCC2)c1", "activation": "inactive: -1.33%"}
{"smiles": "COc1ccc(Cl)cc1C(=O)NCC1(N(C)C)CCCCC1", "activation": "inactive: -1.18%"}
{"smiles": "CN1C2CCC1CC(OC(=O)C(O)(c1ccccc1)c1ccccc1)C2", "note": "(stereo not given)", "activation": "inactive: 0.882%"}
{"smiles": "CC(C)Oc1ccc(C(=O)NCC2(N(C)C)CCCCC2)cc1", "activation": "inactive: -1.11%"}
{"smiles": "CN(C)c1cccc(C(=O)NCC2(N(C)C)CCCCC2)c1", "activation": "inactive: -0.869%"}
{"smiles": "CN(C)C1(CNC(=O)c2c(F)cccc2F)CCCCC1", "activation": "inactive: 0.0053%"}
